From patent US20080299101A1, “Cancer Treatment Resistance and Agents Modulating Such Resistance” (CENTRE NATIONAL DE LA RECHERCHE SCIENTIFIQUE (CNRS INSTITUT …, priority 2004, published 2008)
Like-named read-outs stand apart in the source and are kept apart here.

Assays:
HCT116/R1 [1] = conditions: for Cytotoxicity of oxaliplatin* in presence of actD 0.04 nM: actD 0.04 nM preincubation; for Cytotoxicity of oxaliplatin* in presence of actD 0.12 nM: actD 0.12 nM preincubation; for Cytotoxicity of oxaliplatin* in presence of actD 0.36 nM: actD 0.36 nM preincubation
Experimental: (§1) Cytotoxicity assays were performed by seeding 4000 cells per well in 96 well plates. […] Cytotoxicity measurements were carried out using the WST-1 colorimetric assay (Boehringer Mannheim) according to the manufacturer's recommendation.

HCT116/R2 [2] = test system: HCT116/R2
HCT116/R2 [3] = conditions: for Cytotoxicity of oxaliplatin* in presence of actD 0.04 nM: actD 0.04 nM preincubation; for Cytotoxicity of oxaliplatin* in presence of actD 0.12 nM: actD 0.12 nM preincubation; for Cytotoxicity of oxaliplatin* in presence of actD 0.36 nM: actD 0.36 nM preincubation
Experimental: as §1

HCT116/S = conditions: for Cytotoxicity of oxaliplatin* in presence of actD 0.04 nM: actD 0.04 nM preincubation; for Cytotoxicity of oxaliplatin* in presence of actD 0.12 nM: actD 0.12 nM preincubation; for Cytotoxicity of oxaliplatin* in presence of actD 0.36 nM: actD 0.36 nM preincubation
Experimental: as §1

HCT116/R1 [4] = test system: HCT116/R1

In the case of `Cc1c2oc3c(C)ccc(C(=O)N[C@@H]4C(=O)N[C@H](C(C)C)C(=O)N5CCC[C@H]5C(=O)N(C)CC(=O)N(C)[C@@H](C(C)C)C(=O)O[C@@H]4C)c3nc-2c(C(=O)N[C@@H]2C(=O)N[C@H](C(C)C)C(=O)N3CCC[C@H]3C(=O)N(C)CC(=O)N(C)[C@@H](C(C)C)C(=O)O[C@@H]2C)c(N)c1=O` [actD, actinomycin D], the “Cytotoxicity of oxali + actD 0.36 nM” value (HCT116/R1 [1]; oxaliplatin 0 μM (actD alone), actD 0.36 nM) is reported as 37.3%.

For oxaliplatin, the “Oxaliplatin resistance (fold/parental line)” value (SW48/S) was 1 fold/parental line, the “Oxaliplatin resistance (fold/parental line)” value (HCT116/R2 [2]) was 68 fold/parental line and the “Oxaliplatin resistance (fold/parental line)” value (HCT116/S (parental)) was 1 fold/parental line. For the same molecule, the “Oxaliplatin resistance (fold/parental line)” value (SW620/R) was 22 fold/parental line, the “Oxaliplatin resistance (fold/parental line)” value (HCT116/Rev1) was 1 fold/parental line and the Cytotoxicity of oxaliplatin (HCT116/R2 [3]; oxaliplatin 2.5 μM) was 24.7%. For the same molecule, the “Cytotoxicity of oxaliplatin* in presence of actD 0.04 nM” value (“Cytotoxicity … of actD 0.04 nM” for short) (HCT116/R2 [3]; oxaliplatin 2.5 μM) was 8.3%, the “Cytotoxicity of oxaliplatin* in presence of actD 0.12 nM” value (shortened to “Cytotoxicity … of actD 0.12 nM”) (HCT116/R2 [3]; oxaliplatin 2.5 μM) was 18.1% and the “Cytotoxicity of oxaliplatin* in presence of actD 0.36 nM” value (“Cytotoxicity … of actD 0.36 nM” below) (HCT116/R2 [3]; oxaliplatin 2.5 μM) was 39.8%. For the same molecule, the Cytotoxicity of oxaliplatin (HCT116/R2 [3]; oxaliplatin 5 μM) was 31.7%, the “Cytotoxicity … of actD 0.04 nM” value (HCT116/R2 [3]; oxaliplatin 5 μM) was 31.2% and the “Cytotoxicity … of actD 0.12 nM” value (HCT116/R2 [3]; oxaliplatin 5 μM) was 38.3%. The “Cytotoxicity … of actD 0.36 nM” value (HCT116/R2 [3]; oxaliplatin 5 μM) was 57.4%, the Cytotoxicity of oxaliplatin (HCT116/R2 [3]; oxaliplatin 10 μM) was 55.6% and the “Cytotoxicity … of actD 0.04 nM” value (HCT116/R2 [3]; oxaliplatin 10 μM) was 57.8%. The “Cytotoxicity … of actD 0.12 nM” value (HCT116/R2 [3]; oxaliplatin 10 μM) was 63.4%, the “Cytotoxicity … of actD 0.36 nM” value (HCT116/R2 [3]; oxaliplatin 10 μM) was 67.4% and the Cytotoxicity of oxaliplatin (HCT116/R2 [3]; oxaliplatin 20 μM) was 70.4%. For the same molecule, the “Cytotoxicity … of actD 0.04 nM” value (HCT116/R2 [3]; oxaliplatin 20 μM) was 63.9%, the “Cytotoxicity … of actD 0.12 nM” value (HCT116/R2 [3]; oxaliplatin 20 μM) was 67.8% and the “Cytotoxicity … of actD 0.36 nM” value (HCT116/R2 [3]; oxaliplatin 20 μM) was 75.6%. The Cytotoxicity of oxaliplatin (HCT116/R2 [3]; oxaliplatin 40 μM) was 74.2%, the “Cytotoxicity … of actD 0.04 nM” value (HCT116/R2 [3]; oxaliplatin 40 μM) was 74.6% and the “Cytotoxicity … of actD 0.12 nM” value (HCT116/R2 [3]; oxaliplatin 40 μM) was 72.3%. For the same molecule, the “Cytotoxicity … of actD 0.36 nM” value (HCT116/R2 [3]; oxaliplatin 40 μM) was 78.7%, the Cytotoxicity of oxaliplatin (HCT116/S; oxaliplatin 0.16 μM) was 18.5% and the “Cytotoxicity … of actD 0.04 nM” value (HCT116/S; oxaliplatin 0.16 μM) was 25.1%. For the same molecule, the “Cytotoxicity … of actD 0.12 nM” value (HCT116/S; oxaliplatin 0.16 μM) was 34.5%, the “Cytotoxicity … of actD 0.36 nM” value (HCT116/S; oxaliplatin 0.16 μM) was 41.9% and the Cytotoxicity of oxaliplatin (HCT116/S; oxaliplatin 0.31 μM) was 40.3%. The “Cytotoxicity … of actD 0.04 nM” value (HCT116/S; oxaliplatin 0.31 μM) was 50.7%, the “Cytotoxicity … of actD 0.12 nM” value (HCT116/S; oxaliplatin 0.31 μM) was 60.6% and the “Cytotoxicity … of actD 0.36 nM” value (HCT116/S; oxaliplatin 0.31 μM) was 42.6%. The Cytotoxicity of oxaliplatin (HCT116/S; oxaliplatin 0.62 μM) was 61.6%, the “Cytotoxicity … of actD 0.04 nM” value (HCT116/S; oxaliplatin 0.62 μM) was 72.2% and the “Cytotoxicity … of actD 0.12 nM” value (HCT116/S; oxaliplatin 0.62 μM) was 76.8%. For the same molecule, the “Cytotoxicity … of actD 0.36 nM” value (HCT116/S; oxaliplatin 0.62 μM) was 54.7%, the Cytotoxicity of oxaliplatin (HCT116/S; oxaliplatin 1.25 μM) was 74.4% and the “Cytotoxicity … of actD 0.04 nM” value (HCT116/S; oxaliplatin 1.25 μM) was 77.5%. The “Cytotoxicity … of actD 0.12 nM” value (HCT116/S; oxaliplatin 1.25 μM) was 80.1%, the “Cytotoxicity … of actD 0.36 nM” value (HCT116/S; oxaliplatin 1.25 μM) was 49.3% and the Cytotoxicity of oxaliplatin (HCT116/S; oxaliplatin 2.5 μM) was 76.7%. The “Cytotoxicity … of actD 0.04 nM” value (HCT116/S; oxaliplatin 2.5 μM) was 77.3%, the “Cytotoxicity … of actD 0.12 nM” value (HCT116/S; oxaliplatin 2.5 μM) was 76.8% and the “Cytotoxicity … of actD 0.36 nM” value (HCT116/S; oxaliplatin 2.5 μM) was 35.1%. The Cytotoxicity of oxaliplatin (HCT116/R1 [1]; oxaliplatin 1.25 μM) was 17.2%, the “Cytotoxicity … of actD 0.04 nM” value (HCT116/R1 [1]; oxaliplatin 1.25 μM) was 12.2% and the “Cytotoxicity … of actD 0.12 nM” value (HCT116/R1 [1]; oxaliplatin 1.25 μM) was 22.6%. For the same molecule, the “Cytotoxicity … of actD 0.36 nM” value (HCT116/R1 [1]; oxaliplatin 1.25 μM) was 24.9%, the Cytotoxicity of oxaliplatin (HCT116/R1 [1]; oxaliplatin 2.5 μM) was 17.6% and the “Cytotoxicity … of actD 0.04 nM” value (HCT116/R1 [1]; oxaliplatin 2.5 μM) was 24.2%. The “Cytotoxicity … of actD 0.12 nM” value (HCT116/R1 [1]; oxaliplatin 2.5 μM) was 35.7%, the “Cytotoxicity … of actD 0.36 nM” value (HCT116/R1 [1]; oxaliplatin 2.5 μM) was 46.3% and the Cytotoxicity of oxaliplatin (HCT116/R1 [1]; oxaliplatin 5 μM) was 47%. The “Cytotoxicity … of actD 0.04 nM” value (HCT116/R1 [1]; oxaliplatin 5 μM) was 44.1%, the “Cytotoxicity … of actD 0.12 nM” value (HCT116/R1 [1]; oxaliplatin 5 μM) was 47.4% and the “Cytotoxicity … of actD 0.36 nM” value (HCT116/R1 [1]; oxaliplatin 5 μM) was 60.8%. The Cytotoxicity of oxaliplatin (HCT116/R1 [1]; oxaliplatin 10 μM) was 67%, the “Cytotoxicity … of actD 0.04 nM” value (HCT116/R1 [1]; oxaliplatin 10 μM) was 62.2% and the “Cytotoxicity … of actD 0.12 nM” value (HCT116/R1 [1]; oxaliplatin 10 μM) was 65.5%. The “Cytotoxicity … of actD 0.36 nM” value (HCT116/R1 [1]; oxaliplatin 10 μM) was 66.4%, the Cytotoxicity of oxaliplatin (HCT116/R1 [1]; oxaliplatin 20 μM) was 65.8% and the “Cytotoxicity … of actD 0.04 nM” value (HCT116/R1 [1]; oxaliplatin 20 μM) was 65.1%. The “Cytotoxicity … of actD 0.12 nM” value (HCT116/R1 [1]; oxaliplatin 20 μM) was 68.7%, the “Cytotoxicity … of actD 0.36 nM” value (HCT116/R1 [1]; oxaliplatin 20 μM) was 68.9% and the “Oxaliplatin resistance (fold/parental line)” value (HCT116/Rev2) was 17 fold/parental line. For the same molecule, the “Oxaliplatin resistance (fold/parental line)” value (SW48/R2) was 73 fold/parental line, the “Oxaliplatin resistance (fold/parental line)” value (SW480/R) was 63 fold/parental line and the “Oxaliplatin resistance (fold/parental line)” value (SW480/S) was 1 fold/parental line. For the same molecule, the “Oxaliplatin resistance (fold/parental line)” value (HCT116/R1 [4]) was 28 fold/parental line, the “Oxaliplatin resistance (fold/parental line)” value (SW620/S) was 1 fold/parental line and the “Oxaliplatin resistance (fold/parental line)” value (SW48/R1) was 26 fold/parental line.
